Test results published in PubChem BioAssay AID651724 (National Center for Advancing Translational Sciences (NCATS), 2012).
Only a part is listed here, and it is no random draw. Some results for these compounds are left out of this collection, so the calls shown say nothing about other tests. Calls of active or inactive are those of the source. Rule as the data show it: active = activity change below about -65%; inconclusive = mostly about -30% to -63%; inactive = weaker than that.

Tested on: CtBP / adenovirus E1A interaction (AlphaScreen)
Assay: qHTS Assay for Inhibitors of the CtBP/E1A Interaction
Details: AlphaScreen GST-E1A/His-CtBP binding, 1536-well; hits give low values
From the text: Carboxyl-terminal binding protein (CtBP) is a co-repressor for many transcription factors. […] Our studies have shown that CtBP is overexpressed in multiple human cancers, including lung, breast, and head and neck cancers. In particular, it is over-expressed in 50% of primary lung cancer and 90% of metastatic lesions. CtBP suppresses epithelial-specific genes as well as genes critical for apoptosis, providing the underlying molecular mechanism for its role in tumorigenesis. […] Based on the above data, we hypothesize that 1) CtBP suppresses the pro-apoptotic and epithelial genes, therefore overexpressed CtBP in human cancer cells increases EMT and cancer survival; 2) decreasing CtBP's function represents a targeted therapy for lung cancer and potentially multiple cancer types. As a co-repressor, CtBP binds to E1A and other transcription factors through a conserved peptide motif to carry out its action. Inhibiting this interaction using small molecules can potentially serve as effective cancer therapeutics.
To this end, we have developed a homogenous AlphaScreen assay targeting the CtBP/E1A interaction. We performed a large scale HTS of the Molecular Libraries Small Molecule Repository (MLSMR) to identify inhibitors of the CtBP/E1A interaction as potential anti-cancer therapeutics. Compounds identified can also be used as chemical probes to better understand the biological functions of CtBP.
NIH Chemical Genomics Center [NCGC]
NIH Molecular Libraries Probe Centers Network [MLPCN]
Assay Submitter (PI): Rui Zhao, University of Colorado Denver
The first step of the 5uL AlphaScreen assay is to dispense assay buffer (50 mM Tris, pH 8.0, 300 mM NaCl, 0.05% BSA, 0.02% Tween 20, 1 mM TCEP) into a Greiner 1536 white solid bottom microtiter plate (789175-F). Five microliters is added to Column 1, 4 uL is added to Column 2 and 3 uL is added to Columns 3 through 48. A 5X protein solution (125 nM GST-E1A protein + 125 nM His-tagged CtBP protein) is mixed and 1 uL is dispensed to Columns 3-48. Using a 1536 pintool, 23 nL of compound is transferred to the assay plate and the plate is incubated with a lid at 37 deg C in the dark for two hours. A solution of 5X AlphaScreen beads is mixed (50 ug/mL Glutathione linked donor beads + Nickel chelated acceptor beads) and 1 uL is dispensed to Columns 2-48. The assay plate is incubated for one hour, with a lid, at 37 deg C in the dark. The plate is read using a Perkin Elmer Envision using an AlphaScreen protocol.
% is scaled to controls: 0 for no effect and ±100 for the full control effect.

SMILES | activity change
O=C(OC1CN2CCC1CC2)C(CO)(c1ccccc1)c1ccccc1 (configuration not stated) | inactive: -0.951%
CN(C)c1cccc(C(=O)NCC2(N(C)C)CCCCC2)c1 | inactive: -0.993%
CC(C)Oc1ccc(C(=O)NCC2(N(C)C)CCCCC2)cc1 | inactive: -2.46%
O=C(OCCN1CCCC1)C(O)(c1ccccc1)c1ccccc1 | inactive: 1.18%
COc1ccc(Br)c(C(=O)NCC2(N3CCCCC3)CCCCC2)c1 | inactive: -0.968%
C=C(C)C#CC(O)(C(=O)OC1CCN(C)CC1)c1ccccc1 (configuration not stated) | inactive: -0.678%
CN(C)C1(CNC(=O)c2ccc(Br)cc2)CCCCC1 | inactive: -12.2%
O=C(NCC1(N2CCCCC2)CCCCC1)c1cccc(Cl)c1 | inactive: -9.84%
COc1cccc(C(=O)NCC2(N3CCCCC3)CCCCC2)c1 | inactive: 2.78%
COc1ccc(Cl)cc1C(=O)NCC1(N(C)C)CCCCC1 | inactive: 9.28%
CN(C)c1ccc(C(=O)NCC2(N(C)C)CCCCC2)cc1 | inactive: -11.2%
CN(C)C1CCCC1OC(=O)C(O)(c1ccccc1)c1ccccc1 (configuration not stated) | inactive: 0.14%
CCN1CCCC(OC(=O)C2(O)c3ccccc3C=Cc3ccccc32)C1 (configuration not stated) | inactive: 4.9%
Cc1cc(C(=O)NCC2(N3CCCCC3)CCCCC2)ccc1[N+](=O)[O-] | inactive: 3.79%
O=C(NCC1(N2CCCCC2)CCCCC1)c1cccc(Br)c1 | inactive: -0.557%
COc1ccc(C(=O)NCC2(N(C)C)CCCCC2)cc1 | inactive: 3.67%
O=C(NCC1(N2CCCCC2)CCCCC1)c1cc(F)c(F)cc1Cl | inactive: 18%
O=C(NCC1(N2CCCCC2)CCCCC1)c1cc([N+](=O)[O-])ccc1Cl | inactive: -4.99%
Cc1ccc(C(=O)NCC2(N3CCCCC3)CCCCC2)cc1 | inactive: -6.89%
CC(C)N1C(=O)CC2(CCN(CCOC(=O)C(O)(c3ccccc3)c3ccccc3)CC2)C1=O | inactive: 4.25%
CCN(CC)CC(C)C(C)OC(=O)C(O)(c1ccccc1)c1ccccc1 (configuration not stated) | inactive: 6.36%
COc1cc(SC)ccc1C(=O)NCC1(N(C)C)CCCCC1 | inactive: -1.4%
